Reference: US6409648 (University of California, dated 2002)

Molecular target: T1, HA-Trf1 (Trf1 with a 10 aa hemagglutinin epitope at the N-terminus) (human, UniProt P54274 1-439)
T1 construct: In vitro translated (major 60 kD and minor about 40 kD products), or expressed in HT1080 cells
T1 sequence (looked up): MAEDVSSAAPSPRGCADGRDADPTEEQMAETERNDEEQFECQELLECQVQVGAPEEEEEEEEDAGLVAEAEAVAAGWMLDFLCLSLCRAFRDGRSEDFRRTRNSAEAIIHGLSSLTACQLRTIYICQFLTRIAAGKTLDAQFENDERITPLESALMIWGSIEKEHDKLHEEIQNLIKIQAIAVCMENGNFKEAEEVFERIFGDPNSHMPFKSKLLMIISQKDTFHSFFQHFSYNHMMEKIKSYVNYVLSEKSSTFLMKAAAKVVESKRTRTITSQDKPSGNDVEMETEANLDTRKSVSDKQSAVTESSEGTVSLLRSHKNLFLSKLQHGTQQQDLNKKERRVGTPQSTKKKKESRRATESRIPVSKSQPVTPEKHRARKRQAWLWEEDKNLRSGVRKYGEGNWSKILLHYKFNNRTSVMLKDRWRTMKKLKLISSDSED
Assay: co-immunoprecipitation with anti-GST of in vitro translated radiolabeled protein, SDS-PAGE

B1: GST (glutathione-S-transferase) (other)
chain: MSPILGYWKIKGLVQPTRLLLEYLEEKYEEHLYERDEGDKWRNKKFELGLEFPNLPYYIDGDVKLTQSMAIIRYIADKHNMLGGCPKERAEISMLEGAVLDIRYGVSRIAYSKDFETLKVDFLSKLPEMLKMFEDRLCHKTYLNGDHVTHPDFMLYDALDVVLYMDPMCLDAFPKLVCFKKRIEAIPQIDKYLKSSKYIAWPLQGWQATFGGGDHPPK
notes: Control for the GST fusion proteins
B1: no binding.
